This note sets out measurements from DBAASP.

What all share (assay): ≥ marks a high value that may be exact or a test limit, other limits are often not marked, values filed in µg/mL are converted to µM
The subject of one test is Escherichia coli BL21.
Test [1] deals with Pseudomonas aeruginosa PAO1.
Test [2] concerns Streptococcus pyogenes M1T1 5448.
For test [3], the system named is Erwinia amylovora PMV 6076.
Test [4] has as its system Pseudomonas syringae pv. syringae EPS 94.

Converted amounts (≈) assume the structure as drawn.

Broadly, the MIC is the lowest concentration found to suppress growth. A high value points to a less susceptible organism. In the case of `CC[C@H](C)[C@H](NC(=O)[C@H](CO)NC(=O)[C@H](CCC(=O)O)NC(=O)[C@H](CCCN=C(N)N)NC(=O)[C@H](Cc1c[nH]c2ccccc12)NC(=O)[C@H](C)N)C(=O)N[C@@H](CCCCN)C(=O)N[C@@H](C)C(=O)N[C@@H](Cc1ccc(O)cc1)C(=O)N[C@@H](CC(C)C)C(=O)N[C@@H](CCCCN)C(=O)N[C@@H](CCCCN)C(=O)N[C@@H](CCC(=O)O)C(=O)N[C@H](C(=O)N[C@@H](CCCCN)C(=O)N[C@@H](CCCCN)C(=O)N[C@@H](CCCCN)C(=O)NCC(=O)N[C@@H](CCCCN)C(=O)N[C@@H](CCCN=C(N)N)C(=O)N[C@H](C(=O)N[C@H](C(=O)N[C@@H](C)C(=O)N[C@@H](C)C(=O)N[C@@H](Cc1c[nH]c2ccccc12)C(=O)O)C(C)C)[C@@H](C)CC)[C@@H](C)CC` [AWRESIKAYLKKEIKKKGKRIVAAW], the MIC was 4 µM (≈ 12 µg/mL) with Escherichia coli BL21, 32 µM (≈ 96.1 µg/mL) in test [1] and 16 µM (≈ 48 µg/mL) in test [2].

As to `CC[C@H](C)[C@H](NC(=O)[C@H](CC(C)C)NC(=O)[C@H](C)NC(=O)[C@@H]1CCCN1C(=O)[C@H](CC(C)C)NC(=O)CNC(=O)[C@@H](NC(=O)[C@@H](NC(=O)[C@H](C)NC(=O)[C@@H]1CCCN1C(=O)CNC(=O)[C@H](C)NC(=O)[C@H](CC(C)C)NC(=O)[C@H](Cc1ccc(O)cc1)NC(=O)[C@H](CCCCN)NC(=O)[C@H](CC(C)C)NC(=O)[C@@H](NC(=O)[C@H](CCCCN)NC(=O)[C@H](CCCCN)NC(=O)[C@H](Cc1ccccc1)NC(=O)[C@H](CC(C)C)NC(=O)[C@H](CCCCN)NC(=O)[C@H](CCCCN)NC(=O)CN)[C@@H](C)CC)[C@@H](C)O)[C@@H](C)O)C(=O)N[C@@H](CO)C(=O)N[C@@H](Cc1c[nH]c2ccccc12)C(=O)O` [GKKLFKKILKYLAGPATTGLPALISW], the MIC in test [3] and in test [4] was 1.77 µM (≈ 4.98 µg/mL) throughout.
